Data taken from US20200354404A1, “PEPTIDOMIMETIC AGENTS, SYNTHESIS AND USES THEREOF” (priority 2019, published 2020).

Details: iv 1 mg/kg, individual rats

Measured: Plasma concentration

N[C@@H](Cc1ccccc1)C(=O)N[C@@H](CO)C(=O)N[C@@H](CO)C(=O)N[C@@H](CCC(=O)O)C(=O)O [FSSE, reference compound]
BLOQ: 0.017 hr | 0.033 hr | 0.083 hr | 0.167 hr | 0.33 hr | 0.50 hr

Like-named read-outs stand apart in the source and are kept apart here.
